{"source": "ChEMBL document CHEMBL1129961", "about": "“Design, synthesis, and antiviral evaluation of 2-chloro-5,6-dihalo-1-beta-D-ribofuranosylbenzimidazoles as potential agents for human cytomegalovirus infections” (J Med Chem, 1997)", "tested_on": "HFF", "assay": "Visual cytotoxicity was scored on HFF cells at time of HCMV plaque enumeration", "assay_type": "functional, cell-based, Homo sapiens", "procedure,_shortened": "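Stationary HFF cells from the HCMV plaque assay, not affected by virus, inspected microscopically for cytotoxicity when plaques were counted after 7 days at 37 °C with compound at four to eight concentrations.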"}
{"smiles": "O=[N+]([O-])c1cc2nc(Cl)[nH]c2cc1[N+](=O)[O-]", "values": [{"measurement": "IC50", "value": "> 100", "unit": "µM"}]}
